Measured values taken from PubChem BioAssay AID624297 (National Center for Advancing Translational Sciences (NCATS), 2012).
The entries are a selection whose mix differs from that of the whole data set. Results filed as inconclusive are left out. Some structures show a salt or complex split into parts, the way the source records it. Active and inactive are the calls of the source. Calls come from the whole dose curve; as a rule, active = well fitted activation curve with a large enough effect; inconclusive = small, poorly fitted or top-dose-only effect; inactive = no such curve, though single readings can be large or run the other way.

assay: A quantitative high throughput screen for small molecules that induce DNA re-replication in SW480 colon adenocarcinoma cells.; note: nearly all actives have a fitted effect of over 55% in size; for re-replication activation: % of control where 0% means no effect; details: Hoechst DNA content imaging, 48 h; series mostly up to 46.1 µM; re-replication activation: at the top concentration
Potency is the fitted concentration of half-maximal effect.

Row | SMILES | re-replication activation | Potency
1 | Cc1ccc(C(=O)NCC2(N3CCCCC3)CCCCC2)o1 | inactive: -1.98% | –
2 | Fc1ccccc1NC1CCN(Cc2ccccc2)CC1 | inactive: -12.8% | –
3 | Cc1ccc(NC2(C#N)CCN(Cc3ccccc3)CC2)cc1 | inactive: 0.691% | –
4 | CC(=O)N(c1ccccc1)C1CCNCC1 | inactive: -13.8% | –
5 | COc1cc(OC)cc(C(=O)NCC2(N3CCCCC3)CCCCC2)c1 | inactive: -0.106% | –
6 | O=C(NCC1(N2CCCCC2)CCCCC1)c1ccco1 | inactive: 3.32% | –
7 | CN(C)c1ccc(C(=O)NCC2(N3CCCCC3)CCCCC2)cc1 | inactive: -7.35% | –
8 | Cc1ccccc1NC1(C#N)CCN(Cc2ccccc2)CC1 | inactive: -9.54% | –
9 | CCN1CCC(Nc2cccc(F)c2)CC1 | inactive: 0.364% | –
10 | CC(C)(C)OC(=O)N1CCC(Nc2ccccc2)CC1 | inactive: -4.21% | –
11 | O=C(O)C1(Nc2ccccc2)CCN(Cc2ccccc2)CC1 | inactive: -20.5% | –
12 | CCCOc1ccc(C(=O)NCC2(N(C)C)CCCCC2)cc1 | inactive: 0.745% | –
13 | CCOc1ncccc1C(=O)NCC1(N2CCOCC2)CCCCC1 | inactive: -3.11% | –
14 | CN1CCC(Nc2ccc(F)c(Cl)c2)CC1 | inactive: 2.88% | –
15 | CN1CCC(Nc2ccc(Cl)cc2)CC1 | inactive: -5.06% | –
16 | COc1cc(OC)cc(C(=O)NCC2(N3CCOCC3)CCCCC2)c1 | inactive: 6.89% | –
17 | COc1cccc(C(=O)N(c2cc(C)cc(C)c2)C2CCN(C(=O)OC(C)(C)C)CC2)c1 | inactive: 2.76% | –
18 | CCC(CO)(C(=O)OC1CN2CCC1CC2)c1ccccc1 (stereo unspecified) | inactive: 4.55% | –
19 | COc1ccc(C(=O)NCC2(N3CCOCC3)CCCCC2)cc1OC | inactive: 0.256% | –
20 | COc1cc(C(=O)NCC2(N3CCOCC3)CCCCC2)cc(OC)c1C | inactive: 0.051% | –
21 | O=C(NCC1(N2CCOCC2)CCCCC1)c1cc(Br)ccc1Cl | inactive: 2.28% | –
22 | O=C(OC1CN2CCC1CC2)C1c2ccccc2C=Cc2ccccc21 (stereo unspecified) | inactive: -12.3% | –
23 | CCc1cc(C(=O)NCC2(N3CCCCC3)CCCCC2)sc1C | inactive: -63.7% | –
24 | O=C(O)c1cccc(Nc2c([N+](=O)[O-])cc([N+](=O)[O-])cc2[N+](=O)[O-])c1 | inactive: 23.3% | –
25 | CCOC(=O)N1CCC(Nc2ccc(C)cc2)CC1 | inactive: 0.431% | –
26 | N/C(=N\O)c1c(N)no[n+]1[O-] | inactive: 0.542% | –

Row | SMILES | re-replication activation | Potency
27 | CCOC(=O)C(CC)C1=NC(C)(C)Cc2ccccc21.O=[N+]([O-])c1cc([N+](=O)[O-])c(O)c([N+](=O)[O-])c1 (stereo unspecified) | inactive: -2.09% | –
28 | N#Cc1ccc(C(=O)NCC2(N3CCCCC3)CCCCC2)cc1 | inactive: 10.6% | –
29 | CC(C)(C)OC(=O)N1CCC(N(C(=O)c2ccccc2)c2ccc(Cl)cc2)CC1 | inactive: -3.63% | –
30 | CN(C)C1(CNC(=O)c2cccc(C#N)c2)CCCCC1 | inactive: -5.46% | –
31 | c1ccc(CN2CCC(Nc3ccccc3)CC2)cc1 | inactive: -8.61% | –
32 | CCN1CCC(Nc2ccc(Cl)cc2)CC1 | inactive: 11.6% | –
33 | N#CC1(Nc2ccccc2)CCN(CCc2ccccc2)CC1 | inactive: 1.32% [at 9.22 µM] | –
34 | CSc1ccc(C(=O)NCC2(N3CCOCC3)CCCCC2)cc1 | inactive: -2.4% | –
35 | O=C(NCC1(N2CCCCC2)CCCCC1)c1cccc([N+](=O)[O-])c1 | inactive: 6.62% | –
36 | O=C(NCC1(N2CCCCC2)CCCCC1)c1ccc(OC(F)F)cc1 | inactive: 1.08% | –
37 | COc1cc(C(=O)NCC2(N3CCCCC3)CCCCC2)ccc1OC(F)F | inactive: -3.16% | –
38 | O=C(NCC1(N2CCOCC2)CCCCC1)c1cc(=O)[nH]c2ccccc12 | inactive: -3.51% | –
39 | CN1CCN(CCOC(=O)C(O)(c2ccccc2)c2ccccc2)CC1 | inactive: -76.6% | –
40 | COc1ccc(NC2CCN(C(=O)OC(C)(C)C)CC2)cc1 | inactive: -13.4% | –
41 | O=C(NCC1(N2CCCCC2)CCCCC1)c1cccc(C(F)(F)F)c1 | inactive: -4.12% | –
42 | COc1cc(OC)c(C(=O)NCC2(N(C)C)CCCCC2)cc1OC | inactive: -5.9% | –
43 | O=C(NCC1(N2CCOCC2)CCCCC1)c1cc(F)c(F)cc1Cl | inactive: 4.32% | –
44 | CC(C)c1ccc(NC2CCN(C(=O)OC(C)(C)C)CC2)cc1 | inactive: -3.18% | –
45 | COc1ccc(CN(CCCl)CCCl)cc1Cl | inactive: -3.62% | –
46 | O=[N+]([O-])c1cc([N+](=O)[O-])c(OC2CCCCC2O)c([N+](=O)[O-])c1 (stereo unspecified) | inactive: -2.02% | –
47 | CN(C)c1cccc(C(=O)NCC2(N3CCCCC3)CCCCC2)c1 | inactive: -5.73% | –
48 | CCCOc1ccc(C(=O)NCC2(N(C)C)CCCCC2)cc1OC | inactive: 2.88% | –
49 | O=C(OC1CN2CCC1CC2)c1ccc([N+](=O)[O-])cc1 (stereo unspecified) | inactive: -10.7% | –
50 | COc1ccc2c(c1O)-c1c(O)c(OC)cc3c1[C@H](C2)[N+](C)(C)CC3.O=[N+]([O-])c1cc([N+](=O)[O-])c([O-])c([N+](=O)[O-])c1[O-] | inactive: -7.3% | –
51 | O=C(NCC1(N2CCCCC2)CCCCC1)c1cncc(Br)c1 | inactive: -14.7% | –
52 | CN1CCC(Nc2cccc(F)c2)CC1 | inactive: -5.33% | –

Row | SMILES | re-replication activation | Potency
53 | CSc1ccccc1C(=O)NCC1(N2CCCCC2)CCCCC1 | inactive: 5.96% | –
54 | Cc1cccc(NC2(C#N)CCN(Cc3ccccc3)CC2)c1 | inactive: -1.15% | –
55 | COc1ccc(C(=O)NCC2(N3CCCCC3)CCCCC2)cc1 | inactive: 0.56% | –
56 | CC(C)(C)OC(=O)N1CCC(N(C(=O)c2ccccc2)c2ccc(F)cc2)CC1 | inactive: -8.7% | –
57 | COc1ccc(C(=O)NCC2(N3CCCCC3)CCCCC2)c(OC)c1OC | inactive: 7.11% | –
58 | O=C(NCC1(N2CCCCC2)CCCCC1)c1ccc(=O)[nH]c1 | inactive: 19.1% | –
59 | O=C(NCC1(N2CCCCC2)CCCCC1)c1cccs1 | inactive: -1.53% | –
60 | O=C(OC1CN2CCC1CC2)C1c2ccccc2Oc2ccccc21 (stereo unspecified) | inactive: -14.2% | –
61 | N#CC1(Nc2ccccc2)CCN(Cc2ccccc2)CC1 | inactive: -22% | –
62 | O=C(NCC1(N2CCCCC2)CCCCC1)c1ccc(Cl)s1 | inactive: -5.71% | –
63 | O=C1C(O)=C([N+](=O)[O-])C(=O)C(O)=C1[N+](=O)[O-] | inactive: -5.46% | –
64 | COc1ccc(Cl)cc1C(=O)NCC1(N2CCOCC2)CCCCC1 | inactive: -7.7% | –
65 | CCOC(=O)N1CCC(Nc2ccc(OC)cc2)CC1 | – | active: 18.4 µM
66 | O=C(NCC1(N2CCCCC2)CCCCC1)c1ccc(Cl)nc1 | inactive: -70% | –
67 | O=C(NCC1(N2CCOCC2)CCCCC1)c1cc2ccccc2o1 | inactive: -3.93% | –
68 | O=C(NCC1(N2CCCCC2)CCCCC1)c1ccc(F)cc1 | inactive: -5.07% | –
69 | O=P1(N(CCCl)CCCl)SCCCS1 | inactive: -6.96% | –
70 | CCCCOc1ccc(C(=O)NCC2(N3CCOCC3)CCCCC2)cc1 | inactive: -1.65% | –
71 | COc1ccc(NC2CCN(CCc3ccccc3)CC2)c(OC)c1 | inactive: -1.34% | –
72 | CCOC(=O)N1CCC(Nc2ccc(F)cc2)CC1 | inactive: -25.7% | –
73 | O=C1CCN(Cc2ccccc2)CC1 | inactive: 0.534% | –
74 | CCOc1ccc(C)cc1CN(CCCl)CCCl | inactive: -4.72% [at 9.22 µM] | –
75 | COc1cc(C(=O)NCC2(N(C)C)CCCCC2)ccc1OC(F)F | inactive: 1.18% | –
76 | CCOC(=O)N1CCC(Nc2cccc(C)c2)CC1 | inactive: 0.436% | –
